{
  "sequences": {"note": "The chains behind the UniProt entries cited, without tags or fusion partners.", "UniProt P29371, whole entry": "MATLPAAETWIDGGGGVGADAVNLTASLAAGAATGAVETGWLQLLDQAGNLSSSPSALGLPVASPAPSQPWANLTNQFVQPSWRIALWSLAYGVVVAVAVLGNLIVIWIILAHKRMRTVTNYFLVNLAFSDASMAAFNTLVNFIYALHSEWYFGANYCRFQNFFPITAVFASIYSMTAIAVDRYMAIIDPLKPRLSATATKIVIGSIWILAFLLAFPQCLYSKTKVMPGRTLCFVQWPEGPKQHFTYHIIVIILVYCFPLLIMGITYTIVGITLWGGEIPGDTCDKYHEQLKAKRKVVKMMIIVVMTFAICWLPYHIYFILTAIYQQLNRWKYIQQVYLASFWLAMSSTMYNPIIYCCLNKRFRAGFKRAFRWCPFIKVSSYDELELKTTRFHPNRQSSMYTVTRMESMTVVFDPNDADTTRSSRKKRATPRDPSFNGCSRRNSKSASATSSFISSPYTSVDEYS"},
  "source": "paper PMC10313662",
  "about": "“Structural insights into neurokinin 3 receptor activation by endogenous and analogue peptide agonists” (Cell Discovery, 2023)",
  "molecular_target": "T1, wild-type NK3R (Homo sapiens, UniProt P29371)",
  "T1 construct": "FLAG (DYKDDDDK); expressed in transfected cells; host or cells: HEK293T",
  "assay": "IP-one accumulation assay, wild-type NK3R",
  "type": "cell-based",
  "data": [
    {"compound": "CSCC[C@H](NC(=O)[C@H](CC(C)C)NC(=O)CNC(=O)[C@H](Cc1ccccc1)N(C)C(=O)[C@H](Cc1ccccc1)NC(=O)[C@H](CC(=O)O)NC(=O)CCC(=O)O)C(N)=O", "note": "[senktide, suc-(Asp6, MePhe8) SP (6–11)]", "values": [
      {"measurement": "Emax", "result": 100, "unit": "%"}
    ]}
  ]
}
